Measured values from patent US4584305A, “Aiding the regression of neoplastic disease with 2,3,5,6-tetrahydro-6-phenylimidazo[2,1-b]thiazole” (Janssen Pharmaceutica N.V., priority 1981, dated 1986).
Like-named read-outs stand apart in the source and are kept apart here.

How the values were obtained:
[1] = test system: primary 3 LL tumour (Lewis Lung 3LL); conditions: for Primary tumour: negative intake: autopsy day 21; for Primary tumour: geometric mean weight (g) in positive mice: untreated 3.70 g
[2] = test system: pulmonary metastases of 3 LL tumour (Lewis Lung 3LL); conditions: for Lung metastases: negative mice: autopsy day 21; for Lung metastases: geometric No. in positive mice: untreated 20.2
[3] = group 2, 0.5 mg kg^-1 levamisole s.c., day 1, 12 mice
[4] = group 3, 0.5 mg kg^-1 levamisole, days 7, 9, 11, 13, 15, 17, 10 mice
[5] = single injection of 0.5 mg kg^-1, 24 hr after tumor inoculation
[6] = treatment started after subcutaneous tumor had developed (day 7, every 2 days to day 17, 0.5 mg kg^-1)

For `c1ccc(C2CN3CCSC3=N2)cc1` (stereo not drawn) [levamisole, 2,3,5,6-tetrahydro-6-phenyl-imidazo[2,1-b]thiazole], the “Primary tumour: negative intake” value [1, 3] was 3, the “Primary tumour: geometric mean weight (g) in positive mice” value ([1]; group 2, 0.5 mg kg^-1 levamisole s.c., day 1, 12 mice, confidence interval (0.95) 1.43-3.11) was 2.27 g and the “Primary tumour: negative intake” value [1, 4] was 4. For the same compound, the “Primary tumour: geometric mean weight (g) in positive mice” value ([1]; group 3, 0.5 mg kg^-1 levamisole, days 7, 9, 11, 13, 15, 17, 10 mice, confidence interval (0.95) 0.93-1.87) was 1.40 g, the “inhibition of primary tumor growth in the 9 other mice” value [1, 5] was “significantly (P=0.01) inhibited” and the mice completely cured [1, 5] was 3 out of 12. For the same compound, the mice cured [1, 6] was 4 out of 10, the “primary tumor in the remaining mice” value [1, 6] was “significantly (P=0.01) reduced” and the “Lung metastases: negative mice” value [2, 3] was 3. For the same compound, the “Lung metastases: geometric No. in positive mice” value ([2]; group 2, 0.5 mg kg^-1 levamisole s.c., day 1, 12 mice, confidence interval (0.95) 0.7-5.7) was 3.2, the “Lung metastases: negative mice” value [2, 4] was 5 and the “Lung metastases: geometric No. in positive mice” value ([2]; group 3, 0.5 mg kg^-1 levamisole, days 7, 9, 11, 13, 15, 17, 10 mice, confidence interval (0.95) 1.5-4.5) was 3.0. The “inhibition of the number of pulmonary metastases in the 9 other mice” value [2, 5] was “significantly (P=0.01) inhibited”, the “additional animals that did not demonstrate any lung metastases” value [2, 6] was “one additional animal” and the “pulmonary metastases in the remaining mice” value [2, 6] was “significantly (P=0.01) reduced”.
